Results taken from publication PMC6765138 (Nucleic Acids Research, 2019).

The chains behind the UniProt entries cited, without tags or fusion partners. Residues count along the entry.
UniProt O06581, 81-486: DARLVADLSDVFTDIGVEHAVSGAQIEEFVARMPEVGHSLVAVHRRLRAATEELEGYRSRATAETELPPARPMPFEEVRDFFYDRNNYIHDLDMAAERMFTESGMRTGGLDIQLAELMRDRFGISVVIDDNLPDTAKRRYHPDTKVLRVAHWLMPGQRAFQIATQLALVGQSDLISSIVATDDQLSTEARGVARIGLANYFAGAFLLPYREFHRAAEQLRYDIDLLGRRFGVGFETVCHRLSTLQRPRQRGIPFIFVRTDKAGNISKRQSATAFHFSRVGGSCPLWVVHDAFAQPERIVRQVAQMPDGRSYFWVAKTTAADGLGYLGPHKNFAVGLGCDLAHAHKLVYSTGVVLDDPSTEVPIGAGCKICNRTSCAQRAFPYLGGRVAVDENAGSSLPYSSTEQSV

Target: T1, MtPrpR81–486 (Mycobacterium tuberculosis, UniProt O06581)
T1 construct: gene prpR

SMILES: [S]12[Fe]3[S]4[Fe]1[S]1[Fe+]2[S]3[Fe+]41 [[4Fe4S] cluster]
- X-ray crystal structure; UV-visible spectrum; ICP-MS; EPR: The cubane-type [4Fe4S] cluster resides in the C-terminal region
